Experimental data: patent EP4610267A1, “CYCLIC DINUCLEOTIDES AND CONJUGATES THEREOF WITH ANTIBODIES” (priority 2024, dated 2025)

Test: In vitro mouse plasma stability of antibody-CDN conjugates (payload CDN 2.2 retention on mAb by LC-MS)
Format: in vitro ADME
Details: monoclonal antibody: anti Her2 mA2, 37°C, retention of CDN 2.2 on mAb

(2S)-N-((2S)-1-((4-((((6R,8R,9S,13aR,15R,16R,16aR,17R)-15-(6-amino-9H-purin-9-yl)-16,17-difluoro-3-mercapto-3,11-dioxido-8-(6-oxo-1,6-dihydro-9H-purin-9-yl)decahydro-6,9-methanofuro[3,2-m][1,3,6,9,12]pentaoxa[2,10]diphosphacyclopentadecin-11-yl)thio)methyl)phenyl)amino)-1-oxopropan-2-yl)-2-(2-(2,5-dioxo-2,5-dihydro-1H-pyrrol-1-yl)acetamido)-3-methylbutanamide [Compound 3.19, reference compound]
Mouse plasma T ½: 96 h
